Article PMC12087874, “Biaryl Phosphates and Phosphonates as Selective Inhibitors of the Transcription Factor STAT4” (Angewandte Chemie (International Ed. in English), 2025)

Chains of the proteins cited; added tags and fusions are not shown.
UniProt P40763, whole entry: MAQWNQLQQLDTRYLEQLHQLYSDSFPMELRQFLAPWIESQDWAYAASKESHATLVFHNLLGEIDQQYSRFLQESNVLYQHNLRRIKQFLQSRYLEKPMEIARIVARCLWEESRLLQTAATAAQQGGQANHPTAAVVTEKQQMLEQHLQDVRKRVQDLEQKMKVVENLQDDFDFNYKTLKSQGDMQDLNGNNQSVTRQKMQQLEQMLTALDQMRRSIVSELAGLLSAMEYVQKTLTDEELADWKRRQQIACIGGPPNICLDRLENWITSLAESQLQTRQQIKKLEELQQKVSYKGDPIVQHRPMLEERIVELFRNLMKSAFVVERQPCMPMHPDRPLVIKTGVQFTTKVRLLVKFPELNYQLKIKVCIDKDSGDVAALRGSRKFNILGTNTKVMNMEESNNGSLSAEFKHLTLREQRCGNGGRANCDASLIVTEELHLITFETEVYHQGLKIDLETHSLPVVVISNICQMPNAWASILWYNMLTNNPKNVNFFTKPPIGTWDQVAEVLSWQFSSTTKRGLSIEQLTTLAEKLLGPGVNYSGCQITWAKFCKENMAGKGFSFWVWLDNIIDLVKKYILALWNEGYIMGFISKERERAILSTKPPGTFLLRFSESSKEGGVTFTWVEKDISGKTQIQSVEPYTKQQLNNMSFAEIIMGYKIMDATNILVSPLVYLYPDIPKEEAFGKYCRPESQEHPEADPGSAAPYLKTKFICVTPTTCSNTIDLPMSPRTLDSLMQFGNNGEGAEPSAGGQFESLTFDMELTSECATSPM

Biological target: STAT3 (Homo sapiens, UniProt P40763)
Test: CETSA of STAT3 in lysates from NK-92 cells
Format: binding
Parameters: endogenous in cells; host or cells: NK-92 (DSMZ) lysate
Settings: Ac-pYLPQTV-NH2 at 100 µM
Method: NK-92 cells (DSMZ) were cultured in α-MEM containing 12.5% fetal bovine serum (FBS), 12.5% horse serum, 2 mM L-glutamine, penicillin/streptomycin and 50 U/ml IL -2. TALL-104 cells (ATCC, LGC Standards) were cultured in RPMI 1640 medium containing 20% FBS, 2 mM L - glutamine, penicillin/streptomy cin and 100 U/ml IL-2. HCC-827 cells (DSMZ) and K562 cells (DSMZ) were cultured in RPMI 1640 medium containing 10% FBS, 2 mM L -glutamine and penicillin/streptomycin. HCC -827 cells were subcultured by briefly rinsing with sterile PBS followed by incubation with 0.25% Trypsin-EDTA solution before inactivation by addition of cell culture medium (all reagents apart from cell lines were from Gibco at Thermo Fisher Scientific). […]
CETSA experiments were performed essentially using the published protocol. […] The soluble fractions were subsequently analyzed by Western blotting.
The components of cell lysates from treated cells, or heat-treated lysates from CETSA, were separated by SDS-PAGE (10%), transferred to nitrocellulose membrane (Bio-Rad) and detected using monoclonal rabbit primary antibodies (Cell Signaling), α-rabbit-HRP secondary antibody (Dako) and Western Lightning Plus chemiluminescence reagent (Perkin Elmer).
Bands were visualized using an ImageQuant system (GE Healthcare) and quantitated using ImageJ software (NIH). […]

Ac-pYLPQTV-NH2 [reference compound] was tested, and the “stabilization of STAT3 against thermal degradation” value was “stabilizing effect”.
